Earlier results on one substance are cited in patent US20160073662A1, “PRESERVATIVE AND ADDITIVE FOR FOOD AND FEED” (priority 2014, published 2016).

The conditions of this data set: rat, in vivo; cited from earlier work.

For the substance calcium montmorillonite clay, the “major organs, serum biochemistry, micronutrient levels” value is recorded as “no changes”.
